The results in this text go back to publication PMC13181782, “Development of Biphenyl-Substituted Uracil-Based Hydroxamic Acids (UBHAs) as Potent HDAC Inhibitors with Pro-Apoptotic Activity in Leukemia and Prostate Cancer Cells” (Journal of Medicinal Chemistry, 2026).

Amino acid sequences for entries named in this document (tags omitted).
UniProt Q13547, whole entry: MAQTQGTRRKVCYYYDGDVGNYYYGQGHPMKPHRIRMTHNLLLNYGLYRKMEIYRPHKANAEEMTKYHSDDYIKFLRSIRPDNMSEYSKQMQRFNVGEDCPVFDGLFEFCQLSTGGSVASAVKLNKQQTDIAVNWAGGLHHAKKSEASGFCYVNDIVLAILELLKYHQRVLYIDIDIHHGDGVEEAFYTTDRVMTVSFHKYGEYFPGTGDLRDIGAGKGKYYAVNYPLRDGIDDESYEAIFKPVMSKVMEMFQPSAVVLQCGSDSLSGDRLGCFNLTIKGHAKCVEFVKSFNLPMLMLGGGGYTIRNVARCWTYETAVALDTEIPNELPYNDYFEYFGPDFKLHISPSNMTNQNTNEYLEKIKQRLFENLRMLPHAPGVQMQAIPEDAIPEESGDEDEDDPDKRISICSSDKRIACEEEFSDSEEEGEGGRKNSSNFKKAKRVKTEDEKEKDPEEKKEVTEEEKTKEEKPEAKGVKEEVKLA

By IC50 is commonly meant the concentration that inhibits the measured activity by half.

The target of this assay is hrHDAC1 (Homo sapiens, UniProt Q13547). Nature of the assay: HDAC1 inhibition assay, fluorogenic peptide. Format: biochemical. The settings on record: 10-dose, 3-fold serial dilution from 100 μM; read-out: IC50 HDAC 1.

Turning to `O=C(CCCCSc1nc(-c2ccc(-c3ccccc3)cc2)cc(=O)[nH]1)NO` [Compound 14a], the IC50 was determined as 101 nM.
